Source: patent US12234271B2 (Synthorx, Inc., priority 2019, dated 2025)

Test system: CTLL-2
Test: CTLL-2 proliferation
Assay type: cell-based
Conditions: mouse CTLL-2
From the text: FIG. 4A-FIG. 4B show the dose response curves for pSTAT5 signaling in human LRS primary cell (FIG. 4A) and proliferation response in mouse CTLL-2 populations (FIG. 4B).

Substance: native IL-2: native (wild-type) human IL-2 used as comparator [reference compound]
- CTLL-2 proliferation EC50: 0.4558 ng/mL
